Assay results reported in article doi:10.1101/2020.11.17.386581.

Protein sequences, listed by entry. Tags and fused reporters are not part of them. Residues count along the entry.
UniProt Q07954, 20-4544: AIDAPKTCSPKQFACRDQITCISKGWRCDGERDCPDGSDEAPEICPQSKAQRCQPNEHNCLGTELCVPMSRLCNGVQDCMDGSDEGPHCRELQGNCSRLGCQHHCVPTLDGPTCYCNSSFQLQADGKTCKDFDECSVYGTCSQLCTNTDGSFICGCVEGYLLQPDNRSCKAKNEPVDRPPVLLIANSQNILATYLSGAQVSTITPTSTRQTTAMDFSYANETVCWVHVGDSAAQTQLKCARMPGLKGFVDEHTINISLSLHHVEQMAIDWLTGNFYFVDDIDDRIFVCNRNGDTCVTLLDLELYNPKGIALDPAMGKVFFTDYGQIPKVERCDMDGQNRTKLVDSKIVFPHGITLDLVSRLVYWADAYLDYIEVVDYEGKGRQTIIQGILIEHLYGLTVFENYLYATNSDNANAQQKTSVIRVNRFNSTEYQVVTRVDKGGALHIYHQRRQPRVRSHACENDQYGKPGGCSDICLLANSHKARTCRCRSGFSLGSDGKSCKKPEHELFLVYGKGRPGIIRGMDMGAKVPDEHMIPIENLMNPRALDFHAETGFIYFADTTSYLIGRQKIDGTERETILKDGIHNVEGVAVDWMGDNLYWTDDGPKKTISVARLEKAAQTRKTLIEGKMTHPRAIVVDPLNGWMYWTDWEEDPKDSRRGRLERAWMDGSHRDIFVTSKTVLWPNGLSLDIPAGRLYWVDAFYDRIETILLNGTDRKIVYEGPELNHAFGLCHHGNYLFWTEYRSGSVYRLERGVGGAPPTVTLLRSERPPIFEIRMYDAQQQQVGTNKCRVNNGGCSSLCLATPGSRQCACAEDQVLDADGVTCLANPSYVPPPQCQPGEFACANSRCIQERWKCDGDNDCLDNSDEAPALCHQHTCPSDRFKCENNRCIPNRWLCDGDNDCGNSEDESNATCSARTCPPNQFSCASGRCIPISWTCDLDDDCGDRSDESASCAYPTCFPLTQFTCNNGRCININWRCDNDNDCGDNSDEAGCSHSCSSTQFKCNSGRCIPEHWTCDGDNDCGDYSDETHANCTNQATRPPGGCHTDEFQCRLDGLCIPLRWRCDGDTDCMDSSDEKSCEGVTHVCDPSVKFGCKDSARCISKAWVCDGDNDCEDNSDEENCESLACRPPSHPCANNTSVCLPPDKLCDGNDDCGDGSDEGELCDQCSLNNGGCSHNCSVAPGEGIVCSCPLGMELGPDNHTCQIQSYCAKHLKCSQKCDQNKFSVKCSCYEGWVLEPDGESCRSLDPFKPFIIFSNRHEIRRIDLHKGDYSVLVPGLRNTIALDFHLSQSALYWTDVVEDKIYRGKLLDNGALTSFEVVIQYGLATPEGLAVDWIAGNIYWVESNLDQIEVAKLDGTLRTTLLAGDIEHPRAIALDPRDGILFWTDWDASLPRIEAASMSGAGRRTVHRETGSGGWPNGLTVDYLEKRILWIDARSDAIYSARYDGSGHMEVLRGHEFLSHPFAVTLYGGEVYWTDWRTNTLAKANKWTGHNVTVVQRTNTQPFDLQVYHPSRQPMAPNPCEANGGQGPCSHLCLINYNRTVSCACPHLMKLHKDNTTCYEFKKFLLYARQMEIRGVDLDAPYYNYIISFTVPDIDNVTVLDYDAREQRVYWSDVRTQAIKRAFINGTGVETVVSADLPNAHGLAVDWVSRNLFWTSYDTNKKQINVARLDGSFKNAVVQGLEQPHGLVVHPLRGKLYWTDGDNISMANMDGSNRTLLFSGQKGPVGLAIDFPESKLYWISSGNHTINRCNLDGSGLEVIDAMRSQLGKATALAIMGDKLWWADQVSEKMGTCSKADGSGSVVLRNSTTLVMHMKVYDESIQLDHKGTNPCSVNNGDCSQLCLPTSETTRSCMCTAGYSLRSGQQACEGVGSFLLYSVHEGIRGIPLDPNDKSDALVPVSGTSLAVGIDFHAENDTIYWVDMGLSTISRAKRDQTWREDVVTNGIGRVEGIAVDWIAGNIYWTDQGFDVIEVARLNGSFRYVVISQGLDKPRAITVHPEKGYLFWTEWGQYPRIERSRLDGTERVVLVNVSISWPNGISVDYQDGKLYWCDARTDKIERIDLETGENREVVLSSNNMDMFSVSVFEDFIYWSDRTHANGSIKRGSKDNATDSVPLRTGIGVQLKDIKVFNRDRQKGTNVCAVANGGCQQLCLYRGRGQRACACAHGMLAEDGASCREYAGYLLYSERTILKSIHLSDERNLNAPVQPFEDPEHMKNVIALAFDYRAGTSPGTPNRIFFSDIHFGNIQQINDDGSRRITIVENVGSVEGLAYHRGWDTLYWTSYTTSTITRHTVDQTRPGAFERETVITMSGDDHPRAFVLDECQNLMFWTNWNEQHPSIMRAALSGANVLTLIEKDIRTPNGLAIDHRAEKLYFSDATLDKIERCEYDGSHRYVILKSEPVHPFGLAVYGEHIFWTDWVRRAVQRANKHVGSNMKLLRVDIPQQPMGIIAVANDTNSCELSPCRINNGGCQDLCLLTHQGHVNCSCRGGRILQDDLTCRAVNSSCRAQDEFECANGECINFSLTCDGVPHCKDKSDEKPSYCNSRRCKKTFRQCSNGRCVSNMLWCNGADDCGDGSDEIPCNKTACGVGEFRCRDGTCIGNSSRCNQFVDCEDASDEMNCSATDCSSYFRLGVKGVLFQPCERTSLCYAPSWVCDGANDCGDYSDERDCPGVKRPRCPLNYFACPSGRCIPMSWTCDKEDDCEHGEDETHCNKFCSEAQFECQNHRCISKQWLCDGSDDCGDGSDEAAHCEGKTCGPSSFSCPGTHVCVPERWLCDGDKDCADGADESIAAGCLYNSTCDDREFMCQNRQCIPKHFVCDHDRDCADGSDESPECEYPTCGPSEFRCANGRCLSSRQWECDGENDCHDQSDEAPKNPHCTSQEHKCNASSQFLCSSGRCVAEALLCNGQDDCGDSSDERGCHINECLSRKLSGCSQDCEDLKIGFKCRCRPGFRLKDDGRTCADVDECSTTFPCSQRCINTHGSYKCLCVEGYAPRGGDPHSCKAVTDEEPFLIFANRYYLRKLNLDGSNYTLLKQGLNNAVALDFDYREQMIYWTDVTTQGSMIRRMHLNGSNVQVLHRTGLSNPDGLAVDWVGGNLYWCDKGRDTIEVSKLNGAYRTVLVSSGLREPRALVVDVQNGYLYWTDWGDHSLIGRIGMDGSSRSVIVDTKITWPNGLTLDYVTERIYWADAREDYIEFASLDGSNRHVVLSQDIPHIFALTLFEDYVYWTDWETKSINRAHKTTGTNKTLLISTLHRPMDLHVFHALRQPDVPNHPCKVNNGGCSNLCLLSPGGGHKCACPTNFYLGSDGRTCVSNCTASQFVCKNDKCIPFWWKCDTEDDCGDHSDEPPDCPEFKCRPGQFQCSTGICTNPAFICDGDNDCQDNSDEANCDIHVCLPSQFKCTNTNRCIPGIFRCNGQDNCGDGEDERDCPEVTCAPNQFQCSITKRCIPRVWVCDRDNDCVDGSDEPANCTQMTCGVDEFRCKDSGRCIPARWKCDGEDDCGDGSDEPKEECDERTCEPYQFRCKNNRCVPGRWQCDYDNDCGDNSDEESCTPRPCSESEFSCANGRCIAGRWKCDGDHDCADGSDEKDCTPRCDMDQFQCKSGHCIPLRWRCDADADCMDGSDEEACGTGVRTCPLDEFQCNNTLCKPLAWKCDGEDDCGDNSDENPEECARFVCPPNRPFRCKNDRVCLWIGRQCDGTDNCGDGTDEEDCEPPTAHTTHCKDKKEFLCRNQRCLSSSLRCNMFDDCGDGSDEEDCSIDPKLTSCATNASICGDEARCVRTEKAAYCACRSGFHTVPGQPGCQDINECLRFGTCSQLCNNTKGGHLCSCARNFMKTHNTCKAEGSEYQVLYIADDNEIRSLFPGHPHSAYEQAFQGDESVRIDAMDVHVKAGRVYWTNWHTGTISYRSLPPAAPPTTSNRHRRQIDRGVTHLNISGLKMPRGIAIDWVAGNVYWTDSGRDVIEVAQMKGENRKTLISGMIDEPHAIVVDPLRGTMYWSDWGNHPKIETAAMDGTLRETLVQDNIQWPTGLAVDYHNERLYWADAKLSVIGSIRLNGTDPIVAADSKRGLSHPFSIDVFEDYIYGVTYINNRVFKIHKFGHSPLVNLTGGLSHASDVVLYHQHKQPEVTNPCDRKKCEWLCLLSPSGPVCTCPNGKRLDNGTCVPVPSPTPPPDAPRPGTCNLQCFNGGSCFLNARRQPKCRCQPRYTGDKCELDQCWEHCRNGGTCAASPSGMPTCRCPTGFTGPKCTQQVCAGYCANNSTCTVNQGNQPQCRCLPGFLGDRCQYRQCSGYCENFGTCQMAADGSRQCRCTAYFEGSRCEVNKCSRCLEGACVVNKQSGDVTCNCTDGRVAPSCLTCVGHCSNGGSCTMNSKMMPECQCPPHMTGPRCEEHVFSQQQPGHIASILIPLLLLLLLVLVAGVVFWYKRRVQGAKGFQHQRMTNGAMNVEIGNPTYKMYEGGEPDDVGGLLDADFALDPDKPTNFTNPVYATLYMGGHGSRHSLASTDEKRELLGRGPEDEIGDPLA

Experiments:
Assay in all cases: SPR
[1] = biological target: Recombinant human LRP1 cluster IV Fc chimera (human)
[2] = biological target: Full-length human LRP1 purified from placenta (human) (UniProt Q07954)
[3] = biological target: Recombinant human LRP1 cluster II Fc chimera (human)

Row | pKd [1] | pKd [2] | pKd [3] | Substance
1 | 7.09 | 7.22 | 7.16 | recombinant human tau 2N4R (as used in SPR) (from UniProt P10636-8 1-441) (natural protein)
2 | – | 6.61 | – | hyperphosphorylated 2N4R tau produced in Sf9 cells (from UniProt P10636-8 1-441) (natural protein; hyperphosphorylated (sites not printed))

pKd: −log10 of the molar value.
